Measurements from PubChem BioAssay (NCI).
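Step 1: Grow cells in 96-well plates. Step 2: Expose to compound for 48 hours at 5 concentrations. Step 3: Interpolate endpoints linearly; if unreached, use highest concentration. Here, GI50 denotes the concentration required for 50% inhibition of growth. TGI denotes the concentration required for complete inhibition of growth.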

Columns and labels:
Assay in all cases: NCI-60 cell line screen, 48 h
786-0 renal = test system: 786-0 renal
A549 NSCLC = test system: A549 NSCLC
ACHN renal = test system: ACHN renal
BT-549 breast = test system: BT-549 breast
CAKI-1 renal = test system: CAKI-1 renal
CCRF-CEM leukemia = test system: CCRF-CEM leukemia
COLO 205 colon = test system: COLO 205 colon
DU-145 prostate = test system: DU-145 prostate
EKVX NSCLC = test system: EKVX NSCLC
HCC-2998 colon = test system: HCC-2998 colon
HCT-116 colon = test system: HCT-116 colon
HCT-15 colon = test system: HCT-15 colon
HOP-62 NSCLC = test system: HOP-62 NSCLC
HOP-92 NSCLC = test system: HOP-92 NSCLC
HS 578T breast = test system: HS 578T breast
HT29 colon = test system: HT29 colon
IGROV1 ovarian = test system: IGROV1 ovarian
KM12 colon = test system: KM12 colon
LOX IMVI melanoma = test system: LOX IMVI melanoma
MALME-3M melanoma = test system: MALME-3M melanoma
MCF7 breast = test system: MCF7 breast
MDA-MB-231 breast = test system: MDA-MB-231 breast
MDA-MB-435 = test system: MDA-MB-435
MDA-N = test system: MDA-N
MOLT-4 leukemia = test system: MOLT-4 leukemia
NCI-H226 lung = test system: NCI-H226 lung
NCI-H23 lung = test system: NCI-H23 lung
NCI-H322M lung = test system: NCI-H322M lung
NCI-H460 lung = test system: NCI-H460 lung
NCI/ADR-RES ovarian = test system: NCI/ADR-RES ovarian
OVCAR-4 ovarian = test system: OVCAR-4 ovarian
OVCAR-8 ovarian = test system: OVCAR-8 ovarian
PC-3 prostate = test system: PC-3 prostate
RXF 393 renal = test system: RXF 393 renal
SF-268 CNS = test system: SF-268 CNS
SF-295 CNS = test system: SF-295 CNS
SK-MEL-2 melanoma = test system: SK-MEL-2 melanoma
SK-MEL-28 melanoma = test system: SK-MEL-28 melanoma
SK-MEL-5 melanoma = test system: SK-MEL-5 melanoma
SN12C renal = test system: SN12C renal
SNB-19 CNS = test system: SNB-19 CNS
SNB-75 CNS = test system: SNB-75 CNS
SR leukemia = test system: SR leukemia
SW-620 colon = test system: SW-620 colon
T-47D breast = test system: T-47D breast
TK-10 renal = test system: TK-10 renal
U251 CNS = test system: U251 CNS
UACC-257 melanoma = test system: UACC-257 melanoma
UACC-62 melanoma = test system: UACC-62 melanoma
UO-31 renal = test system: UO-31 renal

CCOP(OCC)c1cn(CCCC(=O)O)nn1
GI50 (786-0 renal): > 100 µM
TGI (786-0 renal): > 100 µM
GI50 (A549 NSCLC): > 100 µM
TGI (A549 NSCLC): > 100 µM
GI50 (ACHN renal): > 100 µM
TGI (ACHN renal): > 100 µM
GI50 (BT-549 breast): > 100 µM
TGI (BT-549 breast): > 100 µM
GI50 (CAKI-1 renal): > 100 µM
TGI (CAKI-1 renal): > 100 µM
GI50 (CCRF-CEM leukemia): > 100 µM
TGI (CCRF-CEM leukemia): > 100 µM
GI50 (COLO 205 colon): > 100 µM
TGI (COLO 205 colon): > 100 µM
GI50 (DU-145 prostate): > 100 µM
TGI (DU-145 prostate): > 100 µM
GI50 (EKVX NSCLC): > 100 µM
TGI (EKVX NSCLC): > 100 µM
GI50 (HCC-2998 colon): > 100 µM
TGI (HCC-2998 colon): > 100 µM
GI50 (HCT-116 colon): > 100 µM
TGI (HCT-116 colon): > 100 µM
GI50 (HCT-15 colon): > 100 µM
TGI (HCT-15 colon): > 100 µM
GI50 (HOP-62 NSCLC): > 100 µM
TGI (HOP-62 NSCLC): > 100 µM
GI50 (HOP-92 NSCLC): > 100 µM
TGI (HOP-92 NSCLC): > 100 µM
GI50 (HS 578T breast): > 100 µM
TGI (HS 578T breast): > 100 µM
GI50 (HT29 colon): > 100 µM
TGI (HT29 colon): > 100 µM
GI50 (IGROV1 ovarian): > 100 µM
TGI (IGROV1 ovarian): > 100 µM
GI50 (KM12 colon): > 100 µM
TGI (KM12 colon): > 100 µM
GI50 (LOX IMVI melanoma): > 100 µM
TGI (LOX IMVI melanoma): > 100 µM
GI50 (MALME-3M melanoma): > 100 µM
TGI (MALME-3M melanoma): > 100 µM
GI50 (MCF7 breast): > 100 µM
TGI (MCF7 breast): > 100 µM
GI50 (MDA-MB-231 breast): > 100 µM
TGI (MDA-MB-231 breast): > 100 µM
GI50 (MDA-MB-435): > 100 µM
TGI (MDA-MB-435): > 100 µM
GI50 (MDA-N): > 100 µM
TGI (MDA-N): > 100 µM
GI50 (MOLT-4 leukemia): > 100 µM
TGI (MOLT-4 leukemia): > 100 µM
GI50 (NCI-H226 lung): > 100 µM
TGI (NCI-H226 lung): > 100 µM
GI50 (NCI-H23 lung): > 100 µM
TGI (NCI-H23 lung): > 100 µM
GI50 (NCI-H322M lung): > 100 µM
TGI (NCI-H322M lung): > 100 µM
GI50 (NCI-H460 lung): > 100 µM
TGI (NCI-H460 lung): > 100 µM
GI50 (NCI/ADR-RES ovarian): > 100 µM
TGI (NCI/ADR-RES ovarian): > 100 µM
GI50 (OVCAR-4 ovarian): > 100 µM
TGI (OVCAR-4 ovarian): > 100 µM
GI50 (OVCAR-8 ovarian): > 100 µM
TGI (OVCAR-8 ovarian): > 100 µM
GI50 (PC-3 prostate): > 100 µM
TGI (PC-3 prostate): > 100 µM
GI50 (RXF 393 renal): > 100 µM
TGI (RXF 393 renal): > 100 µM
GI50 (SF-268 CNS): > 100 µM
TGI (SF-268 CNS): > 100 µM
GI50 (SF-295 CNS): > 100 µM
TGI (SF-295 CNS): > 100 µM
GI50 (SK-MEL-2 melanoma): > 100 µM
TGI (SK-MEL-2 melanoma): > 100 µM
GI50 (SK-MEL-28 melanoma): > 100 µM
TGI (SK-MEL-28 melanoma): > 100 µM
GI50 (SK-MEL-5 melanoma): > 100 µM
TGI (SK-MEL-5 melanoma): > 100 µM
GI50 (SN12C renal): > 100 µM
TGI (SN12C renal): > 100 µM
GI50 (SNB-19 CNS): > 100 µM
TGI (SNB-19 CNS): > 100 µM
GI50 (SNB-75 CNS): > 100 µM
TGI (SNB-75 CNS): > 100 µM
GI50 (SR leukemia): > 100 µM
TGI (SR leukemia): > 100 µM
GI50 (SW-620 colon): > 100 µM
TGI (SW-620 colon): > 100 µM
GI50 (T-47D breast): > 100 µM
TGI (T-47D breast): > 100 µM
GI50 (TK-10 renal): > 100 µM
TGI (TK-10 renal): > 100 µM
GI50 (U251 CNS): > 100 µM
TGI (U251 CNS): > 100 µM
GI50 (UACC-257 melanoma): > 100 µM
TGI (UACC-257 melanoma): > 100 µM
GI50 (UACC-62 melanoma): > 100 µM
TGI (UACC-62 melanoma): > 100 µM
GI50 (UO-31 renal): > 100 µM
TGI (UO-31 renal): > 100 µM
